# Assay results reported in patent US11826399B2 (Eisai Inc., priority 2017, dated 2023).
# Amino acid sequences for entries named in this document (tags omitted). Residues count along the entry.
# UniProt O14786, 22-923 limits assumed: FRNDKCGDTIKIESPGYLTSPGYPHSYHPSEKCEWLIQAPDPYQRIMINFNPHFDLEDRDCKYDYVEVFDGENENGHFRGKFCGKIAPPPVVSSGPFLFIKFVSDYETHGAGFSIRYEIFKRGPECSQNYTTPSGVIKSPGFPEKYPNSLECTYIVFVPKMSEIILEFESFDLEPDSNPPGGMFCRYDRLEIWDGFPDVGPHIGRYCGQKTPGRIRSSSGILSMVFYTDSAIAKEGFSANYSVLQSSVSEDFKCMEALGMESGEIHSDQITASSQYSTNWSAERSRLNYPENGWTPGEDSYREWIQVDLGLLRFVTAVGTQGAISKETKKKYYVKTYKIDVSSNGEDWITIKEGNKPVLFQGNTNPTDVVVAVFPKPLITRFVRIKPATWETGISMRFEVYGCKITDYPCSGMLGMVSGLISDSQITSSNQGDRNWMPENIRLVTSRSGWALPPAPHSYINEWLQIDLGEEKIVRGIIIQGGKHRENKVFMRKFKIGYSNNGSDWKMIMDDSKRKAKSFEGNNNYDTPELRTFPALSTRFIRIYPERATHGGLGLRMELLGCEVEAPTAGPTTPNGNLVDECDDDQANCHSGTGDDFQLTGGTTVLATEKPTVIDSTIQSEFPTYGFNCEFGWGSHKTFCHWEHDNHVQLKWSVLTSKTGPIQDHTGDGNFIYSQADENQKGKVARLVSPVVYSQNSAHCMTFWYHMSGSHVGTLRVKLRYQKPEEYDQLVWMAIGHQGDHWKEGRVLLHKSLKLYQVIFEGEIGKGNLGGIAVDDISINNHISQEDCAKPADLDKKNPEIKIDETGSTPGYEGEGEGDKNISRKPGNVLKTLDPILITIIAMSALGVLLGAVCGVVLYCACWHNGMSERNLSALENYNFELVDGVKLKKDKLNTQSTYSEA
# Target: NRP1 (Homo sapiens, UniProt O14786)
# Settings: read-out: NRP1 Binding KD
substance,measurement,value
Capped Capped NH2-M-C-M-P-C-F-T-T-D-H-Q-M-A-R-COOH Biotin [Peptide synthesis ER-1183034],Kd,169 nM
